# System: SKOV-3 xenograft tumors
# Test: SKOV-3 xenograft tumor growth
# Assay type: in vivo, NSG mice
# Excerpt: Cell Cycle Protein Expression. Cell Cycle Antibody Array (FullMoon BioSystems Inc, catalogue number: ACC:058), a high throughput ELISA based antibody array, designed for qualitative/semi-quantitative protein expression profiling was employed to investigate the protein changes after drug treatment. PANC-1 cells were lysed in buffer containing protease and phosphatase inhibitors (Cell Signaling, catalog number: 9803S). Total protein content was quantified by Bradford assay and equal amounts of proteins were analyzed in duplicate with arrays containing 4 to 6 spots for each of 60 probes (ACC058, Cell Cycle Antibody Array; Full Moon Biosystems, Sunnyvale, Calif.), according to manufacturer's instructions. After background correction, mean signal intensities were measured using FullMoon Inc's imaging services. Protein expressions in both the naïve and 328 treatment group was normalized to GAPDH signals. Confocal Analysis of Septin Disarrangement. To determine the impact of UR214-9 treatment on Septin-2 structure in cells, PANC-1 or JIMT-1 cells were seeded on glass slides and allowed to adhere overnight. The media was replaced with complete DMEM media supplemented with DMSO or UR214-9 (1 μM and 70 nM) and cells were incubated for 48 hours. Media was replaced again with new complete medium and fixed with neutral buffered formalin for 15 minutes at […]. Media was removed and cells were washed repeatedly with PBST (5×5 mL). The cells were stained with Septin-2 antibody (Sigma Aldrich, catalog number: HPA018481) in PSB overnight at […]. Media was removed again and cells were washed with 2×5 mL PBST. The cells were stained with fluorescence linked secondary antibody for 1 hr under dark. Slides were washed repeatedly in dark for 7×5 mL PBST, mounting medium containing DAPI (Vector labs) were applied and covered with glass slide. The slides were stored in dark at 40 C till analysis. […] Five cells were outlined and analyzed per field. […]
substance,measurement,setting,value
trastuzumab: anti-HER2 antibody trastuzumab (Herceptin™) [reference compound],tumor growth during treatment,"UR214-9 25 mg/kg, M-F, I.P., trastuzumab 10 mg/kg, M",controlled the growth of tumors
same,weight of extracted tumors,day 53 since inoculation,matched the average size seen in vehicle group
same,tumor size after treatments were stopped,treatment stopped on day 27,reached the average size in control

# — patent publication US12433876B2, “Septin inhibitors for treatment of cancers” (UNIVERSITY OF ROCHESTER, priority 2019, dated 2025)
